# Assay results: patent US9512105B2, “1-substituted 4-arylpiperazine as kappa opioid receptor antagonists” (RESEARCH TRIANGLE INSTITUTE, priority 2011, dated 2016)
# Protein sequences, listed by entry. Tags and fused reporters are not part of them. Lines headed by an entry give the natural chain unless they say otherwise; changes in a name come on top.
# UniProt P35372, whole entry: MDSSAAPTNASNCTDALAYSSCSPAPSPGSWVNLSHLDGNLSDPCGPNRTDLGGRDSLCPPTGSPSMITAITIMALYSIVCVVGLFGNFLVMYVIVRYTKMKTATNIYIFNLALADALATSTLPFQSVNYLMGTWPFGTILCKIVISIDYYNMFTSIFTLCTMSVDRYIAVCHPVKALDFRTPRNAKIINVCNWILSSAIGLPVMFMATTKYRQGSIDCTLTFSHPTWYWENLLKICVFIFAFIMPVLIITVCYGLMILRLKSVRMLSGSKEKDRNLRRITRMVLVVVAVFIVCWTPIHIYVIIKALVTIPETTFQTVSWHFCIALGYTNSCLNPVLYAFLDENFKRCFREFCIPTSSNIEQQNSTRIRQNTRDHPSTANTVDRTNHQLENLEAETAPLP
# UniProt P41145: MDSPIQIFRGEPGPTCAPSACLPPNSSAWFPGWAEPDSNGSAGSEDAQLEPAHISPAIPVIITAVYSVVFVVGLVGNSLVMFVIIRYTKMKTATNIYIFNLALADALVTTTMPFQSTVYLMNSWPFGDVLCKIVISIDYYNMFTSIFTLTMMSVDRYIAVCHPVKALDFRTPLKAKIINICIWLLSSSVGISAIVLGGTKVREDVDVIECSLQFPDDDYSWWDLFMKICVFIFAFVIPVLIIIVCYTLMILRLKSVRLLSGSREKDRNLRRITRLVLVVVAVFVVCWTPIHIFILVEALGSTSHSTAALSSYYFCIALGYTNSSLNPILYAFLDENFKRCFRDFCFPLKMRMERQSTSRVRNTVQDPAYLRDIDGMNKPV
# What was measured:
# Type in all cases: biochemical
# [1] = biological target: T1, cloned human μ-opioid receptor (Homo sapiens, UniProt P35372); assay: Inhibition of DAMGO-stimulated [35S]GTPγS binding; details: antagonism of DAMGO-stimulated [35S]GTPγS binding, read-out: μ, DAMGO Ke
# T1 construct: expressed in transfected cells
# From the text: (§1) Measures of opioid receptor antagonism and specificity were obtained by monitoring the ability of selected test compounds to inhibit stimulation of [^35S]GTPγS binding produced by the selective agonists (D-Ala^2,MePhe^4,Gly-ol^5)enkephalin (DAMGO, μ receptor) cyclo[D-Pen^2,D-Pen^5]enkephalin (DPDPE, δ) and 5,7,8-(−)-N-methyl-N-[7-(1-pyrrolidinyl)-1-oxaspiro[4,5]dec-8-yl]benzeneacetamide (U69,593, κ) in cloned human receptors.
# [2] = biological target: T2, cloned human δ-opioid receptor (Homo sapiens, UniProt P41143); assay: Inhibition of DPDPE-stimulated [35S]GTPγS binding; details: antagonism of DPDPE-stimulated [35S]GTPγS binding, read-out: δ, DPDPE Ke
# T2 construct: expressed in transfected cells
# From the text: as §1
# [3] = biological target: T3, cloned human κ-opioid receptor (Homo sapiens, UniProt P41145); assay: Inhibition of U69,593-stimulated [35S]GTPγS binding; details: antagonism of U69,593-stimulated [35S]GTPγS binding, read-out: κ, U69,593 Ke
# T3 construct: expressed in transfected cells
# From the text: as §1
structure (smiles),measurement,setting,value
"Cc1ccc(O)c(Oc2ccc(C(=O)N[C@H](CN3CCN(c4cccc(O)c4)[C@@H](C)C3)C(C)C)cc2)c1.Cl.Cl [Compound 6m, 4-(2-Hydroxy-5-methylphenoxy)-N-[(2S)-1-[(3S)-4-(3-hydroxyphenyl)-3-methylpiperazin-1-yl]-3-methylbutan-2-yl]benzamide Dihydrochloride]",Kb,[1],65 ± 18 nM
same,Kb,[2],93 ± 27 nM
same,Kb,[3],0.61 ± 0.27 nM
